In ChEMBL document CHEMBL3886721, “Thienopyrimidine compounds and use thereof” (2016):

Target: T1, Gonadotropin-releasing hormone receptor (Macaca fascicularis, UniProt G7P5Q7)
T1 sequence (G7P5Q7 whole entry): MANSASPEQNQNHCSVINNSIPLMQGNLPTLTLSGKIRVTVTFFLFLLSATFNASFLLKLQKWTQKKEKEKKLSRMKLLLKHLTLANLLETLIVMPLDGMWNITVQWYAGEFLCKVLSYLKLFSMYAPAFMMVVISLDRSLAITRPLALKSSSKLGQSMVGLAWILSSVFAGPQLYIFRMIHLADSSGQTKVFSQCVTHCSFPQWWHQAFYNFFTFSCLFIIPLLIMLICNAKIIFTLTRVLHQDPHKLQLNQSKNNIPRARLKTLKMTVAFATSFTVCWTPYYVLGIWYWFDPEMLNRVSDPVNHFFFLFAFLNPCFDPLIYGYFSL
Assay: 125I-Leuprorelin Binding Assay: The monkey and human membrane fractions prepared were diluted with the assay buffer to yield a 200 µg/ml dilution, each of which was then dispensed at 188 μl per tube. To a tube containing the cell membrane fraction of the CHO with monkey GnRH receptors expressed were added 2 μl of a solution of 20 mM compound in 60% DMSO and 10 μl of 38 nM 125I-leuprorelin. To a tube containing the cell membrane fraction of the CHO with human GnRH receptors expressed were added 2 μl of a solution of 2 mM compound in 60% DMSO and 10 μl of 38 nM 125I-leuprorelin. To determine maximum binding quantity, a reaction mixture containing 2 μl of 60% DMSO and 10 μl of 38 nM 125I-leuprorelin was prepared. To determine non-specific binding amount, a reaction mixture containing 2 μl of a solution of 100 μM leuprorelin in 60% DMSO and 10 μl of 38 nM 125I-leuprorelin was prepared.

IC50: 9 nM
SMILES: COCCN(C)Cc1c(-c2ccc(NC(=O)NOC)cc2)sc2c1c(=O)n(-c1ccccn1)c(=O)n2Cc1c(F)cccc1F
